## Antibody variant affinities, Ab-14 heavy chain, assay 1

The target is the same throughout: PDVDLGDISGINAS, from the HR2 region of SARS-CoV-2 spike.

Each scFv is VH, a 15-residue (Gly4Ser)3 linker, VL, as in the parent Ab-14, and differs from it in the CDRs of the heavy chain only.
VH: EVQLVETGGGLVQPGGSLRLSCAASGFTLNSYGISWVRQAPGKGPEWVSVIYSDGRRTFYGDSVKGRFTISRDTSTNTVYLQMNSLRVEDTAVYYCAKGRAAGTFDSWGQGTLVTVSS
VL: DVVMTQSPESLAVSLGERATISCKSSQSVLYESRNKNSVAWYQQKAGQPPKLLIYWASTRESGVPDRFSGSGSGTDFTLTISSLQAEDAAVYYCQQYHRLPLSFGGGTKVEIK

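AAYL49 was designed without a model: most single CDR substitutions and a random sample of double and triple ones. The assay is AlphaSeq: two haploid yeast populations carry antibody and antigen on their surface. Mating (16 h, 30 °C) was followed by selection of diploids and sequencing of their barcodes. Each replicate has its own calibration line, from reference interactions of the BCL2 family. Mating was done three times.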

Variants are written as CDR1, CDR2 and CDR3 of the heavy chain (limits as in the source). Parent: GFTLNSYGIS, VIYSDGRRTFYGDSVK, GRAAGTFDS. Every variant below is changed at V64 of the VH (sequential numbering). The read-out is the apparent dissociation constant on a log10 scale (nM): the lower, the stronger. Replicates are averaged; those with no signal do not enter the mean. Where no diploid with the target was found in any replicate, the entry reads "nd": below detection, most likely a poor binder, though not proof of it.

With GFTLNSYGIS | VIYSDGRSTFYGDSAC | GRAAGTFDS the result was nd (0 of 3 replicates). Variant GFTLNSYGIS | VIYSDGRRTFYGDSPK | GRAGRTFDS gave nd (0 of 3 replicates). For SFTLNSYGIS | VIYSDGRRTFYGDSYK | GRAAGTFDE, the assay gave 3.84 (2 of 3 replicates). Variant GFTLNSYPIS | VIYSDGRRTFYGDSPI | GRAAGTFDS gave 2.98 (1 of 3 replicates). Variant FFTLNSYGIS | VIYSDIRRTFYGDSDK | GRAAGTFDS showed nd (0 of 3 replicates).

Variant GFTLNSYGIS | VIYSDGRRTFYGDSIK | GRAGGKFDS showed nd (0 of 3 replicates). With NFTLNSYGIS | VILSDGRRTFYGDSNK | GRAAGTFDS the result was 3.44 (1 of 3 replicates). Variant GFTLNLYGIS | VIYSDGRRTFYGDSEK | GRAAGTFDD showed nd (0 of 3 replicates). Variant GFTLNSYGQS | VIYSDGLRTFYGDSSK | GRAAGTFDS showed 4.76 (3 of 3 replicates). Variant GFTLNSYGIS | VIYSDGRRTFYGDSGK | GRAAGTFDW gave nd (0 of 3 replicates).

For GFTNLSYGIS | VIYSDGRRTFYGDSSK | GRAAGTFDS, the assay gave 5.25 (2 of 3 replicates). With GFTLNSYGIS | VIYSDGRRTFYGDSHK | GRAAGTFDS the result was 3.73 (1 of 3 replicates). Variant GCTLNSYGIS | VIYSDGRRTFYGDSGK | LRAAGTFDS showed 2.64 (1 of 3 replicates). With GFTLNSYGII | VIYSDGRRTFWGDSWK | GRAAGTFDS the result was nd (0 of 3 replicates). For GFTLNSYGIS | VIYSDGRRTFYGDSQK | GRAAMCFDS, the assay gave nd (0 of 3 replicates).

Variant GFTLNSYGIS | VIYSDGRRTFYGDQAK | GRAAGDFDS showed nd (0 of 3 replicates). Variant GITLNSYGIS | VIYSDGRRTFWGDSNK | GRAAGTFDS showed 4.62 (1 of 3 replicates). With GFTLNSYGIQ | VIYSDGRRTFYGDSQK | GRAAGTFDS the result was nd (0 of 3 replicates). For GFTLQSYGIS | VIYSDGRRTFYGDSFK | GRAAGTFDS, the assay gave 1.09 (3 of 3 replicates). With GFTLCSYGGS | VIYSDGRRTFYGDSFK | GRAAGTFDS the result was nd (0 of 3 replicates).

Variant GFTLNSYGIS | VIYSDGRRTFYGDSQK | VGAAGTFDS gave 3.51 (1 of 3 replicates). Variant GFTLNSYGIS | VIYSDGRRTFYGDSTC | GRAAGTFDL showed 3.95 (1 of 3 replicates). Variant GFTLNSYGIS | VIYSDGRRTRYGSSGK | GRAAGTFDS showed 4.69 (2 of 3 replicates). With GFTLNSYGIS | VIYSDGRRTIYGDSTK | GRAAGTFDS the result was nd (0 of 3 replicates). Variant GFTLNSYGIS | VIYSDGRLTFYRDSMK | GRAAGTFDS showed nd (0 of 3 replicates).

For GFTLNSYGIS | VIYSDGRRTFYGDSYK | GDAAGPFDS, the assay gave 5.03 (3 of 3 replicates). Variant GFTLMSYGIS | VIYSDGRRTFYGDSDK | GKAAGTFDS showed 3.72 (1 of 3 replicates). Variant GFTLNHYGIS | VIYSDGRRTWYGDSEK | GRAAGTFDS showed nd (0 of 3 replicates). Variant GFTLNSYGIS | VIYSDGRRTQYKDSMK | GRAAGTFDS showed 4.45 (1 of 3 replicates). For GFTLNSYGIS | VISSDGRRTFYGDSKK | CRAAGTFDS, the assay gave nd (0 of 3 replicates).

Variant GFTLNSYGIS | VIYSDGFATFYGDSWK | GRAAGTFDS showed 3.37 (1 of 3 replicates). With GFTLNSYGIS | VIYSDGRRTFYGDSYK | GRQPGTFDS the result was 3.81 (1 of 3 replicates). With GNTLNMYGIS | VIYSDGRRTFYGDSTK | GRAAGTFDS the result was 3.40 (1 of 3 replicates). Variant GFTLNSYGIS | VIYSDGRRTRYDDSEK | GRAAGTFDS gave nd (0 of 3 replicates). With GFTLNSETIS | VIYSDGRRTFYGDSYK | GRAAGTFDS the result was nd (0 of 3 replicates).

Variant GFTLNSYGIS | VIYSDFRRTFYGDSHK | GCAAGTFDS gave nd (0 of 3 replicates). Variant GFTLNSYGIS | VIQSDGRRTFKGDSRK | GRAAGTFDS gave nd (0 of 3 replicates). For GFTLNSYGIS | VIYSDGRRTFYDYSCK | GRAAGTFDS, the assay gave 3.23 (3 of 3 replicates). For GFTLNSYGWS | VIYSDGRRTFYGDSWK | GVAAGTFDS, the assay gave 2.76 (1 of 3 replicates). With GFTLNSYGIS | VIYTDGRRTFYGDSGK | GRAAGTFHS the result was nd (0 of 3 replicates).

Variant DFTLNSYGIS | VIYSDGRRTFYGCSCK | GRAAGTFDS gave 5.03 (1 of 3 replicates). Variant GFTLNSYGIS | VIYSDGRRTFYGDSGK | GRHAITFDS gave nd (0 of 3 replicates). For GFTLNSYGIS | PIYSDGPRTFYGDSYK | GRAAGTFDS, the assay gave nd (0 of 3 replicates).

A selection of 6 entries from above:

| CDR-H1 | CDR-H2 | CDR-H3 | mean log10 Kd (nM) | detected |
|---|---|---|---|---|
| GFTLNSYGIS | VIYSDGRRTRYDDSEK | GRAAGTFDS | nd | 0 of 3 |
| GFTLNSYGIS | VIYSDGRRTFYGDSYK | GRQPGTFDS | 3.81 | 1 of 3 |
| GFTLNSYGIS | VIYSDFRRTFYGDSHK | GCAAGTFDS | nd | 0 of 3 |
| FFTLNSYGIS | VIYSDIRRTFYGDSDK | GRAAGTFDS | nd | 0 of 3 |
| GFTLNLYGIS | VIYSDGRRTFYGDSEK | GRAAGTFDD | nd | 0 of 3 |
| GFTLNSYGIS | VIYSDGRRTFYGDSTC | GRAAGTFDL | 3.95 | 1 of 3 |

Three control strains display no target. For library AAYL49, 15% of the pairings with them gave a signal, with a median of 4.06 and one signal in twenty below 2.83, so weak values seen in few replicates may be background.

Data: MIT Lincoln Laboratory AlphaSeq set, Engelhart et al. 2022, doi:10.1038/s41597-022-01779-4, as distributed in FLAb.